# What was measured:
# Amino acid sequences for entries named in this document (tags omitted). Residues count along the entry.
# UniProt P37173, 23-166: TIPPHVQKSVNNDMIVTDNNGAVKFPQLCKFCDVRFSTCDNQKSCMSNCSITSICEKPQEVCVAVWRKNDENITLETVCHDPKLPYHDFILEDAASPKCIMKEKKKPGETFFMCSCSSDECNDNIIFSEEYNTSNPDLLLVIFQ
# [1] = molecular target: TGM6 (TGF-β mimic 6), full-length (Heligmosomoides polygyrus); experiment: ITC; TGFBR2 injected into TGM6 or TGM6-D3 in the cell; 25 mM HEPES, 150 mM NaCl, 0.05% NaN3, pH 7.4; global fit of 2 (TGM6) or 3 (TGM6-D3) replicates to a simple 1:1 binding model
# [2] = molecular target: TGM6-D3 (TGM6 domain 3) (Heligmosomoides polygyrus); experiment: as above
substance,measurement,setting,value
TGFBR2 extracellular domain (TGF-β type II receptor) (from UniProt P37173 23-166),Kd,[1],0.22 µM
same,Kd,[2],0.44 µM

# Reference: paper PMC11845725
